In US20080023859A1, “Glycopeptides and Temperature-Responsive Micelles” (Toagosei Co., Ltd., priority 2003, published 2008):

Assays:
[1] = Measurement of micelle formation by dynamic light scattering (particle diameter); assay type: physicochemical; settings: for temperature at which micelle/aggregate was formed / micelle diameter: DLS in solution
[2] = Molecule aggregation of gas-liquid interfacial monolayer (π-A curves, LB film-forming apparatus); assay type: physicochemical; settings: gas-liquid interface monolayer, temperature increased to 45° C.

| temperature at which micelle/aggregate was formed [1] | micelle diameter [1] | micelle diameter ([1]; at 25° C. or more) | repetition of micelle formation on temperature cycling ([1]; temperature varied between 15° C. and 35° C. for 15 minutes, repeated, diameters measured at 15° C. and 35° C.) | molecular occupancy of π-A curve [2] | Substance |
| --- | --- | --- | --- | --- | --- |
| ≥ 35 °C | – | – | – | – | Ac-Val-Pro-Gly-Val-Gly-Val-Pro-Gly-Val-Gly-pAP-Man [Compound 8] |
| – | 400 nm | – | – | – | NH2-Glu(pAP-Man)-Val-Pro-Gly-Val-Gly-Val-Pro-Gly-Val-Gly-pAP-Man [Compound 4] |
| ≥ 25 °C | – | 2 μm | at least five times | became smaller | NH2-Val-Pro-Gly-Val-Gly-Val-Pro-Gly-Val-Gly-pAP-Man [Compound 1] |
